Each structure is given as a SMILES string.

One test deals with L-1210/CPR. Briefly: Cytotoxicity on tumor cells. The class given is cell-based. The note with it: mouse leukemia resistant to Cisplatin, 37°C, 72 hours, 5% CO₂, probit method.
The subject of another test is P-388/ADR. Briefly: Cytotoxicity on tumor cells. Conditions: mouse leukemia resistant to multiple drugs, 37°C, 72 hours, 5% CO₂, probit method. The class given is cell-based.

On to `COC(=O)C1(C)Nc2c(O)cc3c(c2C1=O)C(CO)CN3C(=O)c1cc2cc(OC)c(OC)c(OC)c2[nH]1` (centres unmarked), for which the IC₅₀ with L-1210/CPR was determined as 7.9 µg/mL; in the test with P-388/ADR it was 14.5 µg/mL.

The values above are taken from patent publication EP0318056A2, “Novel antibiotics and process for preparing the same” (MEIJI SEIKA KAISHA LTD., priority 1987, dated 1989).
